In patent US7405036B2, “Process for reducing pathogens in a biological sample and removing a sample pellet from a sample tube” (priority 2001, dated 2008):

Tested on: cryopreserved gaur (Bos gaurus) sperm
Assay: Survival of thawed gaur sperm with soy-based trypsin inhibitor at recommended concentration
Conditions: 1.4 mg of the inhibitor for every 1 mg of trypsin

B1: soy-based trypsin inactivator: soy-based trypsin inhibitor product (Sigma Chemical Company) added to the 90% layer (protein, UniProt P01070 25-205, looked up)
Trypsin inhibitor A: DFVLDNEGNPLENGGTYYILSDITAFGGIRAAPTGNERCPLTVVQSRNELDKGIGTIISSPYRIRFIAEGHPLSLKFDSFAVIMLCVGIPTEWSVVEDLPEGPAVKIGENKDAMDGWFRLERVSDDEFNNYKLVFCPQQAEDDKCGDIGISIDHDDGTRRLVVSKNKPLVVQFQKLDKESL
Q: How did the sperm survival post-exposure turn out when B1 was run?
A: not surviving beyond one hour post-exposure
